This is an account of results in patent US9447029B2, “Fluorinated arylalkylaminocarboxamide derivatives” (NEWRON PHARMACEUTICALS S.P.A., priority 2011, dated 2016).

Where a name gives a salt, the structure may show the parent alone. Read-outs that look alike come from different tables or passages of the source.

The test has as its system hindlimb tonic extensor component of seizures. The conditions noted are these: 15 minutes before testing, mice. From the text: The maximal electroshock test (MES) is used commonly in the screening of anti-epileptic drugs in rodent models.

For the compound `CCCCOc1cccc(C(F)(F)CNCC(=O)N(C)C)c1` [Example 1-1, 2-[2,2-Difluoro-2-(3-butoxyphenyl)-ethylamino]-N,N-dimethyl-acetamide, hydrochloride], for the setting “po”, the “50% Protection” value is given as “(9.8 mg/kg, po)”.

As to `CCCCOc1cccc(C(F)CNCC(=O)N(C)C)c1` (centres unmarked) [Example 4-1, 2-[2-Fluoro-2-(3-butoxyphenyl)-ethylamino]-N,N-dimethyl-acetamide, hydrochloride], under “iv”, the “50% Protection” value is given as “(4.0 mg/kg, iv)”.
